## scFv variants of Ab-91 (heavy chain) against a SARS-CoV-2 spike peptide

Target peptide (SARS-CoV-2 spike, HR2 region): PDVDLGDISGINAS

The variants keep the light chain, the linker and the frameworks of Ab-91 (scFv order VL, the linker GGGGSGGGGSGGGGS, VH).
VL: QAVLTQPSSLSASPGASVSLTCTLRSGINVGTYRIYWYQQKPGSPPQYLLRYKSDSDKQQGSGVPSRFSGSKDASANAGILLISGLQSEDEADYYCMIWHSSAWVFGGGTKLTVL
VH: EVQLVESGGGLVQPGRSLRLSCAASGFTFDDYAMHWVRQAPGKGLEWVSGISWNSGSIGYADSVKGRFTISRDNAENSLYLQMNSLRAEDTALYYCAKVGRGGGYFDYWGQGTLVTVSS

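Library AAYL51 holds single substitutions and randomly drawn double and triple substitutions in the CDRs. The assay is AlphaSeq: two haploid yeast populations carry antibody and antigen on their surface. Mating (16 h, 30 °C) was followed by selection of diploids and sequencing of their barcodes. Scores were corrected for input abundance and mapped to Kd with protein pairs of known affinity run in the same pool. There are three technical replicates.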

Substitutions are numbered in sequence along the VH above, starting at 1 (not Kabat). Kd is apparent (estimated from mating counts) and averaged on the log scale over replicates with a signal. Smaller is tighter. "nd" marks a missing value. The strain was present, yet no cells mated with the target were sequenced in any replicate, which points to weak or no binding.

changes | Kd (apparent) | seen in
R101D/G102W | 520 µM | 1/3
T28A/N54K/S63T | 24 µM | 1/3
G104H/Y105M/F106Q | 2.1 mM | 1/3
H35Y/A61Q/V64T | nd | 0/3
T28Q/S57P/Y105K | 3.6 µM | 1/3
S52H/I58R/K65N | nd | 0/3
Y32W/N54A/A61C | nd | 0/3
I58P/Y60E/A61H | nd | 0/3
M34F/H35W/D107H | 480 µM | 1/3
H35E/K65N | nd | 0/3
G50C/V99W/R101K | nd | 0/3
T28D/Y60F/Y108S | 28 nM | 3/3
G104Q/Y105K | 14 nM | 3/3
S52W/I58P/G104Y | 140 µM | 2/3
S52P/G100A/G103V | nd | 0/3
G50M/N54Y/V99E | nd | 0/3
G26T/Y32Q/V64F | 880 µM | 2/3
T28W/G50L/S55Y | 1.9 µM | 1/3
G26R/A33F/K65P | 160 µM | 2/3
N54P/R101M/F106R | nd | 0/3
G59L/G104K/Y108L | nd | 0/3
I51T/V64D/G102S | nd | 0/3
Y32M/H35M/K65N | nd | 0/3
A33E/I58Y | 94 µM | 2/3
G56P/G59M/Y108C | nd | 0/3
F27Q/S52A/A61M | 170 nM | 3/3
D31W/N54D/D107G | 1.8 µM | 1/3
I51K/N54D/G102P | nd | 0/3
G56K/I58M/A61H | 5.2 µM | 1/3
D30C/Y60G/R101D | nd | 0/3
S55L/G102I/Y108K | nd | 0/3
D30M/D31P/Y105N | 72 µM | 1/3
G26Y/F29S/D31Y | 78 µM | 2/3
S57K/Y60G/G100H | 66 µM | 3/3
D31P/Y32V/I58W | nd | 0/3
H35T/S63I/K65S | 210 nM | 1/3
I58R/G59T/Y108F | 5.0 µM | 1/3
A33L/G50C/G100M | 30 µM | 1/3
A61L/S63C/G104R | nd | 0/3
T28K/D30L/K65R | 2.1 µM | 2/3
Y32T/N54V/S55Q | 220 µM | 2/3
G26Y/D31F/I58R | nd | 0/3
G56D/R101K/F106D | 38 µM | 1/3
Y32I/G59A/G104P | 2.7 µM | 1/3
I51T/A61R/K65I | 280 µM | 1/3
S55T/G56S/S63G | nd | 0/3
D31L/G50H/K65Y | 23 µM | 1/3
I51W/Y105R/D107C | nd | 0/3
F29V/S57Y | nd | 0/3
T28D/D62C | nd | 0/3
D31W/I51L/F106G | 350 nM | 3/3
D30E/D31C/D107L | nd | 0/3
T28Y/G103R/Y105P | 220 nM | 3/3
F27N/D30G/M34A | 80 µM | 3/3
Y32A/D62H/G103Y | nd | 0/3
F29Q/I58W/G102A | nd | 0/3
N54P/I58V/R101T | nd | 0/3
S55G/G56D/Y60I | 1.5 nM | 3/3
G26C/D30G/D107A | 21 nM | 3/3
H35W/S52H/G56M | nd | 0/3
A33R/I58K/S63F | nd | 0/3
M34N/S63M/K65W | 1.3 µM | 1/3
G50A/R101V/Y108N | 13 µM | 1/3
D31Q/M34K/G59S | 6.8 µM | 1/3
M34K/W53Q/G102A | 52 µM | 1/3
G26F/D31I | nd | 0/3
W53V/I58W/G103N | 250 µM | 1/3
S52G/S57A/Y105H | 620 µM | 2/3
A33L/Y60G/R101K | nd | 0/3
F29R/I51M/D107M | nd | 0/3
G50Q/V64L/F106R | nd | 0/3
A33L/I58C/Y108A | 390 nM | 3/3
S52P/K65M/F106D | 1.3 mM | 1/3
M34H/I58C/Y108K | 33 nM | 3/3
D30L/N54F/G56P | 140 µM | 2/3

The last 10 entries again:

| changes | Kd (apparent) | seen in |
|---|---|---|
| G26F/D31I | nd | 0/3 |
| W53V/I58W/G103N | 250 µM | 1/3 |
| S52G/S57A/Y105H | 620 µM | 2/3 |
| A33L/Y60G/R101K | nd | 0/3 |
| F29R/I51M/D107M | nd | 0/3 |
| G50Q/V64L/F106R | nd | 0/3 |
| A33L/I58C/Y108A | 390 nM | 3/3 |
| S52P/K65M/F106D | 1.3 mM | 1/3 |
| M34H/I58C/Y108K | 33 nM | 3/3 |
| D30L/N54F/G56P | 140 µM | 2/3 |

For reference, the parent read 72 nM as the reference entry and 7.5 nM as a member of this library. Background: pairings of library AAYL51 with three empty control strains gave a value in 21% of cases (median 34 µM, 5th percentile 1.8 µM). Values in that range, when seen in few replicates, are hard to tell from nonspecific mating.

Reference: Engelhart et al. 2022, doi:10.1038/s41597-022-01779-4. File: FLAb, binding data.